How the values were obtained:
[1] = biological target: WEE1 (Homo sapiens, UniProt P30291); test: NanoBRET target engagement in HEK293T cells, WEE1; conditions: read-out: WEE1 INHIBITION IC50, 2 h
[2] = biological target: EPHB3 (Homo sapiens, UniProt P54753); test: NanoBRET target engagement in HEK293T cells, EPHB3; conditions: read-out: EPHB3 INHIBITION IC50, 2 h
[3] = system: CYP3A; test: CYP inhibition, CYP3A; conditions: read-out: CYP3A inhibition IC50; HLM, midazolam 3 μM
[4] = biological target: CYP2D6 (Homo sapiens, UniProt P10635); test: CYP time dependent inhibition, CYP2D6; conditions: 10 μM, 30 min preincubation, HLM
[5] = In vivo tolerability, combination with irinotecan hydrochloride, female athymic nude mice
[6] = system: SW620 tumors; test: Pharmacodynamic effect in human colorectal SW620 xenograft model (athymic nude mice), immunoblotting
[7] = In vitro biotransformation in human hepatocytes
[8] = In vitro biotransformation in minipig hepatocytes; conditions: 5 μM, 180 min
[9] = In vitro biotransformation in rat hepatocytes; conditions: 5 μM, 180 min
[10] = In vitro biotransformation in mouse hepatocytes; conditions: 5 μM, 180 min
[11] = biological target: BMX (Homo sapiens, UniProt P51813); test: Kinase profiling, Z-Lyte; conditions: 1 μM, KmATP
[12] = biological target: CDK2/cyclin A (Homo sapiens, UniProt P24941); test: Kinase profiling, Z-Lyte; conditions: 1 μM, KmATP
[13] = biological target: CLK2 (Homo sapiens, UniProt P49760); test: Kinase profiling, Z-Lyte; conditions: 1 μM, KmATP
[14] = biological target: DYRK3 (Homo sapiens, UniProt O43781); test: Kinase profiling, Z-Lyte; conditions: 1 μM, KmATP
[15] = biological target: EPHB4 (Homo sapiens, UniProt P54760); test: Kinase profiling, Z-Lyte
[16] = biological target: HIPK3 (YAK1) (Homo sapiens, UniProt Q9H422); test: Kinase profiling, Z-Lyte; conditions: 1 μM, KmATP
[17] = biological target: LYN A Hu Phos (Homo sapiens, UniProt P07948); test: Kinase profiling, Z-Lyte; conditions: 1 μM, KmATP
[18] = biological target: MATK (HYL) (Homo sapiens, UniProt P42679); test: Kinase profiling, Z-Lyte; conditions: 1 μM, KmATP
[19] = biological target: MINK1 (Homo sapiens, UniProt Q8N4C8); test: Kinase profiling, Z-Lyte; conditions: 1 μM, KmATP
[20] = biological target: PRKCA (PKC alpha) (Homo sapiens, UniProt P17252); test: Kinase profiling, Z-Lyte; conditions: 1 μM, KmATP
[21] = biological target: SGK2 (Homo sapiens, UniProt Q9HBY8); test: Kinase profiling, Z-Lyte; conditions: 1 μM, KmATP
[22] = biological target: YES1 (Homo sapiens, UniProt P07947); test: Kinase profiling, Z-Lyte
[23] = biological target: MAP2K1 (MEK1) (Homo sapiens, UniProt Q02750); test: Kinase profiling, Cascade Z-Lyte; conditions: 1 μM, KmATP
[24] = biological target: MAP2K2 (MEK2) (Homo sapiens, UniProt P36507); test: Kinase profiling, Cascade Z-Lyte; conditions: 1 μM, KmATP
[25] = biological target: MAP2K6 (MKK6) (Homo sapiens, UniProt P52564); test: Kinase profiling, Cascade Z-Lyte; conditions: 1 μM, KmATP
[26] = biological target: MAP3K8 (COT) (Homo sapiens, UniProt P41279); test: Kinase profiling, Cascade Z-Lyte; conditions: 1 μM, KmATP
[27] = biological target: MAPK10 (JNK3) (Homo sapiens, UniProt P53779); test: Kinase profiling, Cascade Z-Lyte; conditions: 1 μM, KmATP
[28] = biological target: MAPK14 (p38a) (Homo sapiens, UniProt Q16539); test: Kinase profiling, Cascade Z-Lyte; conditions: 1 μM, KmATP
[29] = biological target: MAPK8 (JNK1) (Homo sapiens, UniProt P45983); test: Kinase profiling, Cascade Z-Lyte; conditions: 1 μM, KmATP
[30] = biological target: MAPK9 (JNK2) (Homo sapiens, UniProt P45984); test: Kinase profiling, Cascade Z-Lyte; conditions: 1 μM, KmATP
[31] = biological target: PDPK1 (Homo sapiens, UniProt O15530); test: Kinase profiling, Cascade Z-Lyte; conditions: 1 μM, KmATP
[32] = biological target: bRAF (Homo sapiens, UniProt P15056); test: Kinase profiling, Cascade Z-Lyte
[33] = biological target: ANKK1 (Homo sapiens, UniProt Q8NFD2); test: Kinase profiling, Lantha v2; conditions: 1 μM, KmATP
[34] = biological target: TESK2 (Homo sapiens, UniProt Q96S53); test: Kinase profiling, Lantha v2; conditions: 1 μM, KmATP
[35] = biological target: PKMYT1 (Homo sapiens, UniProt Q99640); test: SPR direct binding assay; conditions: 25 °C
[36] = biological target: CDK1 pThr14 (PKMYT1 substrate), FUOV-1 cells (Homo sapiens, UniProt Q99640); test: Functional CDK1 pThr14 AlphaLISA assay in FUOV-1 cells; conditions: read-out: pCDk1(Thr14) INHIBITION IC50, 2 h
[37] = 100 mg/kg BID 3 days + irinotecan hydrochloride 50 mg/kg
[38] = human hepatocytes, 5 μM, 180 min
[39] = single-cycle kinetics, 1:1 binding

Protein sequences, listed by entry. Tags and fused reporters are not part of them. Residues count along the entry.
UniProt P30291, whole entry: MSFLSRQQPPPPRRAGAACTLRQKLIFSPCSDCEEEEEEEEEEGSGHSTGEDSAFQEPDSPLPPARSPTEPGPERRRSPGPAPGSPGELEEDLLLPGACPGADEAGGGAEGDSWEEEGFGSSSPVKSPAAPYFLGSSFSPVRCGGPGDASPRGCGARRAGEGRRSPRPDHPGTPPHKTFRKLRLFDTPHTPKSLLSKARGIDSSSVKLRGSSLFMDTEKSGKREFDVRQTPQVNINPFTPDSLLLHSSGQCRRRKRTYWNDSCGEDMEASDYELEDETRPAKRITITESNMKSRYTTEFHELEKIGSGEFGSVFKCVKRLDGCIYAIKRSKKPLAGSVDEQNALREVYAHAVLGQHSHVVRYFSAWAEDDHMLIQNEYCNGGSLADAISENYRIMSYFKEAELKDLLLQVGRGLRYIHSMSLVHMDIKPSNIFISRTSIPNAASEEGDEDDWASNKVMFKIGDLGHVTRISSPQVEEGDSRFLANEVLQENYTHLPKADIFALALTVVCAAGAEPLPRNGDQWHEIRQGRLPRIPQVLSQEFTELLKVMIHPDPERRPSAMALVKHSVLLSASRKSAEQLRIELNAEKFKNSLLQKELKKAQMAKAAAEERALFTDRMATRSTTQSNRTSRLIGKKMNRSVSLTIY
UniProt P54753, 34-998 limits assumed: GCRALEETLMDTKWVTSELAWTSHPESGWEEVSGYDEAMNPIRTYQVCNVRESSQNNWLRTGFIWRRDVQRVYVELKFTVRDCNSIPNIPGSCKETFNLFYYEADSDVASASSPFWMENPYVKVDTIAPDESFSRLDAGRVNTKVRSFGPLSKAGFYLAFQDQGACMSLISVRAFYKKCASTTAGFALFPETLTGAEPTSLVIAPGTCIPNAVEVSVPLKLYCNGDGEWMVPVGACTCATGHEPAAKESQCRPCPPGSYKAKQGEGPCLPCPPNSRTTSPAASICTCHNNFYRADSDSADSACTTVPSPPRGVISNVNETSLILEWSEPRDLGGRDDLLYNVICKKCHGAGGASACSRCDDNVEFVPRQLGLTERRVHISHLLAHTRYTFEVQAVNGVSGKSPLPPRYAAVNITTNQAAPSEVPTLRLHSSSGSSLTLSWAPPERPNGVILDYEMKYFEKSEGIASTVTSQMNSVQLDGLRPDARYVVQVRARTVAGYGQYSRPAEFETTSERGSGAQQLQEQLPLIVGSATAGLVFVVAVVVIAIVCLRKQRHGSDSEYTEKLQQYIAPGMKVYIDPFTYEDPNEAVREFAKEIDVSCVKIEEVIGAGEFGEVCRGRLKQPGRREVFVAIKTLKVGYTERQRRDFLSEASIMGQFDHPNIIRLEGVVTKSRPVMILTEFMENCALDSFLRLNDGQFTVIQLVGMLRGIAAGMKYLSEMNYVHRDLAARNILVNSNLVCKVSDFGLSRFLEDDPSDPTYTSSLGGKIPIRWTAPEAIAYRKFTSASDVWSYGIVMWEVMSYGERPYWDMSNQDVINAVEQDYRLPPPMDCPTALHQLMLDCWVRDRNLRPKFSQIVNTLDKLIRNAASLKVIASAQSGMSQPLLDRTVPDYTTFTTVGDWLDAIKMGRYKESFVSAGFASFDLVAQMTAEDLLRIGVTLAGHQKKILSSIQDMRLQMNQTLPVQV
UniProt O43781, whole entry: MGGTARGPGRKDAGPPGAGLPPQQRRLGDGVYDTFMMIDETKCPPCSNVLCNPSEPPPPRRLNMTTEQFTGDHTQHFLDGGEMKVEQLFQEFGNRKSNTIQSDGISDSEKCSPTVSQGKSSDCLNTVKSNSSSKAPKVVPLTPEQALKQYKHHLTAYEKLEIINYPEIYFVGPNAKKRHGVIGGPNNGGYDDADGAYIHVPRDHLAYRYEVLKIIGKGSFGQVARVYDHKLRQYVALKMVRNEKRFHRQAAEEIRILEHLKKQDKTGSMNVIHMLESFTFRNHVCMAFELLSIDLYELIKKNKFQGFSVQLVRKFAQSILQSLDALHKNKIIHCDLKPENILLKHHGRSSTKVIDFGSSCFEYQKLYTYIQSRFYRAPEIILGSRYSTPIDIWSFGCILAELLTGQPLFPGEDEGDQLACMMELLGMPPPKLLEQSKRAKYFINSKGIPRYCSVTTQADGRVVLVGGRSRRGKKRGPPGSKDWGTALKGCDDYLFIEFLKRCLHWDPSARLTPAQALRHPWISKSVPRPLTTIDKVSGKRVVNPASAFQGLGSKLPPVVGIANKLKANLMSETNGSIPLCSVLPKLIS
UniProt Q8N4C8, whole entry: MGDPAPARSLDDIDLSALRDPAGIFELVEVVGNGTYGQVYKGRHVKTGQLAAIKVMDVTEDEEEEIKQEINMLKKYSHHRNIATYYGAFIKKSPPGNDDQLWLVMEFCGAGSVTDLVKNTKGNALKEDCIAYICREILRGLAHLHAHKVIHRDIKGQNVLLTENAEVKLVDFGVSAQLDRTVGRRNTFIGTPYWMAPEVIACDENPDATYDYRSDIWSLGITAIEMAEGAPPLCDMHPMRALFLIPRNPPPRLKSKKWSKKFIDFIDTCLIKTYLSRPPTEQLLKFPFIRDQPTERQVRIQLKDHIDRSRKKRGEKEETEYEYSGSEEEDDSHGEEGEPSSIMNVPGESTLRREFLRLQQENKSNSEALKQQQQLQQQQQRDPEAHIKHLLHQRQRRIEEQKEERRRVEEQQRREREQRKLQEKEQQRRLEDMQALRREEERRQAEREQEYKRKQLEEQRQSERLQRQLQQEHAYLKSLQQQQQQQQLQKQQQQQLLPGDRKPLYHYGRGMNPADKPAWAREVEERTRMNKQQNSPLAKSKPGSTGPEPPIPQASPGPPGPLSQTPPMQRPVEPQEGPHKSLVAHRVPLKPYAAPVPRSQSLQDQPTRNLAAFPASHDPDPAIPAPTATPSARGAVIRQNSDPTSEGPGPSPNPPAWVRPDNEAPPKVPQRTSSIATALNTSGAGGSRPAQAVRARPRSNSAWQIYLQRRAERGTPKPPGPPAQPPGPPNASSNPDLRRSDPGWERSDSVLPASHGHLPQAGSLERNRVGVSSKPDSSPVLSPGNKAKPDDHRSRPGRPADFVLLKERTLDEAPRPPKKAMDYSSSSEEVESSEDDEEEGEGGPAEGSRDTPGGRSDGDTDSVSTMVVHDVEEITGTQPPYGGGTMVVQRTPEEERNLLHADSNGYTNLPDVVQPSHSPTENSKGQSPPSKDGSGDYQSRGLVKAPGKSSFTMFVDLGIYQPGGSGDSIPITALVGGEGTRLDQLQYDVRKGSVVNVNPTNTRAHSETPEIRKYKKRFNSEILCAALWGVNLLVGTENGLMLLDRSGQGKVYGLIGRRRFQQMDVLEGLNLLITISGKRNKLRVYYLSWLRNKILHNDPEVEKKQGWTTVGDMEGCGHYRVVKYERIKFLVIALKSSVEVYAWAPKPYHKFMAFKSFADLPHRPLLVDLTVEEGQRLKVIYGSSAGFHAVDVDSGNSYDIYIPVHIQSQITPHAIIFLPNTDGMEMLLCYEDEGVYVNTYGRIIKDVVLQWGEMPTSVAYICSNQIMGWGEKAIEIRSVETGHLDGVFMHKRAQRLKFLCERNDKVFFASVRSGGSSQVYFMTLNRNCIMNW
UniProt Q9HBY8, whole entry: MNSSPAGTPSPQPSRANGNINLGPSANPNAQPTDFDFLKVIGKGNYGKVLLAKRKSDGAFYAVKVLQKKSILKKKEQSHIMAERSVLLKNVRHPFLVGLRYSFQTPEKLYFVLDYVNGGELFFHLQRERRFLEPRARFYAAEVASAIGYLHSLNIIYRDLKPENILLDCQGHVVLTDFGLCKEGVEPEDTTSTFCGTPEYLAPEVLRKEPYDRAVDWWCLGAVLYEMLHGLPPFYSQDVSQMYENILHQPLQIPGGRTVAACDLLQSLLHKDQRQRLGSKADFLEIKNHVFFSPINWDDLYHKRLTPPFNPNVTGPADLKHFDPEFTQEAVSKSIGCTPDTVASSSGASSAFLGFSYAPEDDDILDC
UniProt Q02750, whole entry: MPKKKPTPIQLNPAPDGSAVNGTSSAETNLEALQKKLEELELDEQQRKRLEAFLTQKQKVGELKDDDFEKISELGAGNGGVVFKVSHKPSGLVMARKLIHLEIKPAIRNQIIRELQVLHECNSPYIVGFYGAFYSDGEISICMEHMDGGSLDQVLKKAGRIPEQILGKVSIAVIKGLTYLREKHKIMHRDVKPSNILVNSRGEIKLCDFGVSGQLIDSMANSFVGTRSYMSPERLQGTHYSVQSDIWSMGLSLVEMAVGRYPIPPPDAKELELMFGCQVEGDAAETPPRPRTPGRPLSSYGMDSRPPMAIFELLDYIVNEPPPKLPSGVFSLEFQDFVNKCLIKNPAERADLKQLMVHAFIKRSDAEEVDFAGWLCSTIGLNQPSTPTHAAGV
UniProt P53779, whole entry: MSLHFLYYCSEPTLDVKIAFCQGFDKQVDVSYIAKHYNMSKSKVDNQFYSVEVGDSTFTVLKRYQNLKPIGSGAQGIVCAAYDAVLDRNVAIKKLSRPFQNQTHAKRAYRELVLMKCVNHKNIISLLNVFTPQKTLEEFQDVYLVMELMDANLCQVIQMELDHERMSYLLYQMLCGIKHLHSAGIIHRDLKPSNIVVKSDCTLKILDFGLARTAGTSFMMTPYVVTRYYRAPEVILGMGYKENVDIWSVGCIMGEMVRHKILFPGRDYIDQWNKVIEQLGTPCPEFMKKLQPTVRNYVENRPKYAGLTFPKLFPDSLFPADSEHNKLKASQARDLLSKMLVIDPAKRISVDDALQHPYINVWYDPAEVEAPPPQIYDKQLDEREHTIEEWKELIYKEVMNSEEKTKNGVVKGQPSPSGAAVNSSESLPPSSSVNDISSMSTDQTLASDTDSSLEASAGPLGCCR
UniProt Q16539, whole entry: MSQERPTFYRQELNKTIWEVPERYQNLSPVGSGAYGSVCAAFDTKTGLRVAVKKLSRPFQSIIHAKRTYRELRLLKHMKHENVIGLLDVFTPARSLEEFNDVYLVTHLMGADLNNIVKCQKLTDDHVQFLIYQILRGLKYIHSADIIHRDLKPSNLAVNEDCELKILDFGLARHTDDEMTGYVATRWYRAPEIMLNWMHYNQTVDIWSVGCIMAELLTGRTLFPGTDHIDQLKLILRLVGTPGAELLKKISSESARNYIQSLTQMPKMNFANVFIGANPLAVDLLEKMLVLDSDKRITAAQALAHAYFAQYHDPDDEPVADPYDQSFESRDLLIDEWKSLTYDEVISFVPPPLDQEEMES
UniProt O15530, whole entry: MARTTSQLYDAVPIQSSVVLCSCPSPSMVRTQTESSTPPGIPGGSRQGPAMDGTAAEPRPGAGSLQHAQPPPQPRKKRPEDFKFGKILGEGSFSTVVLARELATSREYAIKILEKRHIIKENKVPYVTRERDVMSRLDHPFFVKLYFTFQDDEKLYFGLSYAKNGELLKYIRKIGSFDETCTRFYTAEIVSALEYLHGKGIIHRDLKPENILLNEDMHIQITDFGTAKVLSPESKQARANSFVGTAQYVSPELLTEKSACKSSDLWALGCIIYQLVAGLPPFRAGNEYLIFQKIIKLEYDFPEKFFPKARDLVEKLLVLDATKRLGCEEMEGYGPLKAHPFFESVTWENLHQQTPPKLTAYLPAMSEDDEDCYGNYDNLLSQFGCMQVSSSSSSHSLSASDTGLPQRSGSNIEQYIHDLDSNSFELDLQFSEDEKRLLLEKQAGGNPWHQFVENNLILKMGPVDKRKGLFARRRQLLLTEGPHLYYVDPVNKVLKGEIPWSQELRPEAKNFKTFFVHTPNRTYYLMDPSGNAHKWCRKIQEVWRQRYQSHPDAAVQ
UniProt Q99640, 75-362 limits assumed: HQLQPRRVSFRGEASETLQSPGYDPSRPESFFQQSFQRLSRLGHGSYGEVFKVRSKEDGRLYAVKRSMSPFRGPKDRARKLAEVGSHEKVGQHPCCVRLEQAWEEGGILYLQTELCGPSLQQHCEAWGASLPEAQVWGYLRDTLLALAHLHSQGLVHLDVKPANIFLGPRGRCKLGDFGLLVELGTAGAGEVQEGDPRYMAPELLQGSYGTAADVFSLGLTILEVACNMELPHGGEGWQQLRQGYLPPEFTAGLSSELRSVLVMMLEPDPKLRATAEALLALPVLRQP
UniProt Q99640, whole entry: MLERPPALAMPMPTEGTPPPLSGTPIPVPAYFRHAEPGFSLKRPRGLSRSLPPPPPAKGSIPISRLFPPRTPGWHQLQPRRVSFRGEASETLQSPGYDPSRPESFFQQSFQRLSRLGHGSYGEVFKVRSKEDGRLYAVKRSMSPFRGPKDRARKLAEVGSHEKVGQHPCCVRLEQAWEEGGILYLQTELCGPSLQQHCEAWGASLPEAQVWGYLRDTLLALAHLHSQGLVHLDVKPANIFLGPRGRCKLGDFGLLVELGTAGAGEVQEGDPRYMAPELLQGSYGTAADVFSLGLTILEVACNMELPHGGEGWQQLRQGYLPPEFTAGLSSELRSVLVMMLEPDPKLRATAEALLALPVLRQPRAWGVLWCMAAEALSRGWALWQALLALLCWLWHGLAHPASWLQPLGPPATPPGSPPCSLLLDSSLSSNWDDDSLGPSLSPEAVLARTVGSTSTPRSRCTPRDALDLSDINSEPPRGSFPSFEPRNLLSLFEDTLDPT

## Cc1nc(C(F)(F)F)c2c(C(N)=O)c(N)n(-c3c(C)ccc(O)c3C)c2n1 (single isomer, unassigned)
[1]
  IC50: > 9970 nM
[2]
  IC50: 3960 nM
[3]
  IC50: > 30000 nM
[4]
  % time dependent inhibition (TDI), CYP2D6: less than 20%
[5]; 100 mg/kg BID + irinotecan hydrochloride 50 mg/kg weekly, 28 days
  body weight loss, paw or tail swelling, adverse events: No significant loss of body weight, paw or tail swelling, or other noticeable adverse events
[5]; 100 mg/kg BID oral, with irinotecan hydrochloride, athymic nude mice
  free Cmax: approximately 5.7 μM
[6]; [37]
  DNA damage formation (gH2AX), potentiation by addition to irinotecan hydrochloride: not further potentiated
  mitotic population (phospho-histone H3 Ser10): did not result in a reduced mitotic population
[6]; 100 mg/kg BID 3 days, absence or presence of irinotecan hydrochloride
  PKMYT1 target engagement (Phospho-CDK1 Thr14): PKMYT1 target engagement
[7]; [38]
  Glucuronidation: m (minor (>1% but ≤10%))
  Oxidation: m (minor (>1% but ≤10%))
[7]; in vitro hepatocytes
  dominant routes of biotransformations: oxidation and glucuronidation
[8]
  Glucuronidation: M (Major (>10%))
  Oxidation: m (minor (>1% but ≤10%))
[9]
  Glucuronidation: M (Major (>10%))
[10]
  Glucuronidation: M (Major (>10%))
[11]
  MEAN INHIBITION: 19.529%
[12]
  MEAN INHIBITION: 6.868%
[13]
  MEAN INHIBITION: 7.005%
[14]
  MEAN INHIBITION: 0.554%
[15]; 1 μM, KmATP
  MEAN INHIBITION: 59.449%
[15]; 10-point CR, ATP 100.000 μM
  IC50: 466 nM
[16]
  MEAN INHIBITION: 0.970%
[17]
  MEAN INHIBITION: 41.079%
[18]
  MEAN INHIBITION: 10.674%
[19]
  MEAN INHIBITION: 9.318%
[20]
  MEAN INHIBITION: 0.422%
[21]
  MEAN INHIBITION: −1.482%
[22]; 1 μM, KmATP
  MEAN INHIBITION: 62.995%
[22]; 10-point CR, ATP 25.000 μM
  IC50: 249 nM
[23]
  MEAN INHIBITION: 7.323%
[24]
  MEAN INHIBITION: 0.056%
[25]
  MEAN INHIBITION: −0.119%
[26]
  MEAN INHIBITION: 7.138%
[27]
  MEAN INHIBITION: 5.848%
[28]
  MEAN INHIBITION: −0.075%
[29]
  MEAN INHIBITION: 10.253%
[30]
  MEAN INHIBITION: −0.061%
[31]
  MEAN INHIBITION: 10.720%
[32]; 1 μM, KmATP
  MEAN INHIBITION: 40.753%
[32]; 10-point CR, ATP 100.000 μM
  IC50: 963 nM
[33]
  MEAN INHIBITION: −2.285%
[34]
  MEAN INHIBITION: 5.530%
[35]; [39]
  OFF RATE koff: 0.0001 s⁻¹
  ON RATE kon: 240000 M⁻¹ s⁻¹
[35]; read-out: BINDING AFFINITY KD, SPR
  Kd: 0.42 nM
[36]
  IC50: 40 nM
